Data published in US6660742B2, “Compositions and methods of the use thereof achiral analogues of CC-1065 and the duocarmycins” (priority 2000, dated 2003).

Tested on: NCI-H322M
Assay: NCI screen, NCI-H322M (Non-Small Cell Lung Cancer)

COC(=O)c1[nH]c2c(O)cc(NC(=O)c3cc4cc(OC)c(OC)c(OC)c4[nH]3)c(CCCl)c2c1C(=O)OC [Compound 22, Dimethyl 4-(2-chloroethyl)-7-hydroxy-5-(5,6,7-trimethoxyindole-2-carboxamido)indole-2,3-dicarboxylate] was tested, and the TGI (48 hour exposure) was 2.38E−06 Molar and the “Percent Growth” value (Log10 Concentration −4.3, 48 hour exposure) was −22%.
